Here are results for 26 substances from PMC5153249.

Values joined by “and” are separate entries in the source; they are usually repeats but may differ in a detail not shown here. Identical values can stand only once.

The target in assay [1] is 48S pre-initiation complex (40S, eIF1, eIF1A, ternary complex, AUG-containing model mRNA) (S. cerevisiae) (UniProt P32911). The assay is described as follows: other; 48S PIC, + mRNA.
In assay [2] the target is 43S pre-initiation complex (40S ribosomal subunit, eIF1, eIF1A and eIF2•GDPNP•Met-tRNAi ternary complex); called 48S PIC when AUG-containing model mRNA is added (yeast) (UniProt P32911). Description: other; 43S PIC, no mRNA.
Assay [3] deals with ternary complex eIF2•GDPNP•Met-tRNAi (S. cerevisiae) (UniProt P20459). Description: native gel or EMSA; gel shift monitoring [35S]-Met-tRNAi; 1 µM eIF1, 1 µM eIF1A, 200 nM eIF2, 1 mM GDPNP, 1 nM Met-tRNAi, 500 nM eIF3 where present, no mRNA; 40S subunits titrated 10-320 nM; 1X Recon buffer, 26 °C, 2 h; apparent KD, Langmuir isotherm; single experiments. (In general: In EMSA bound probe runs differently from free probe, usually more slowly.)

For assay [4], the target named is 43S pre-initiation complex (40S ribosomal subunit, eIF1, eIF1A and eIF2•GDPNP•Met-tRNAi ternary complex); called 48S PIC when AUG-containing model mRNA is added (yeast) (UniProt P32911). Description: native gel or EMSA; eIF3 (30-500 nM) titrated into 48S PICs: 1 µM uncapped AUG-containing model mRNA, 20 nM 40S, 1 µM eIF1, 1 µM eIF1A, 200 nM eIF2, 1 mM GDPNP•Mg2+, 2 nM [35S]-Met-tRNAi; 26 °C, 2 h; apparent KD from a Hill fit.

Assay [5] has the same target. Description: native gel or EMSA; eIF3 (30-500 nM) titrated into 43S PICs without mRNA: 30 nM 40S, 1 µM eIF1, 1 µM eIF1A, 200 nM eIF2, 1 mM GDPNP•Mg2+, 2 nM [35S]-Met-tRNAi; 1X Recon buffer (30 mM HEPES-KOH pH 7.4, 100 mM KOAc pH 7.6, 3 mM Mg(OAc)2, 2 mM DTT); 26 °C, 2 h; apparent KD from a Hill fit, free eIF3 corrected for free ….
Assay [6] addresses 48S pre-initiation complex (40S, eIF1, eIF1A, ternary complex, AUG-containing model mRNA) (S. cerevisiae) (UniProt P32911). The assay is described as follows: native gel or EMSA; gel shift monitoring [35S]-Met-tRNAi; 48S PICs with 1 µM uncapped AUG-containing model mRNA (1 µM eIF1, 1 µM eIF1A, 200 nM eIF2, 1 mM GDPNP•Mg2+, 2 nM Met-tRNAi, 20 nM 40S); eIF3 titrated 30-500 nM; 1X Recon buffer, 26 °C, 2 h; apparent KD, Hill equation; single experiments; apparent affinities ≤ 30 nM likely upper limits.

Assay [7] addresses 43S pre-initiation complex (40S, eIF1, eIF1A, ternary complex; no mRNA) (S. cerevisiae) (UniProt P32911). Description: native gel or EMSA; gel shift monitoring [35S]-Met-tRNAi; 43S PICs without mRNA (1 µM eIF1, 1 µM eIF1A, 200 nM eIF2, 1 mM GDPNP•Mg2+, 2 nM Met-tRNAi, 30 nM 40S); eIF3 titrated 30-500 nM; 1X Recon buffer (30 mM HEPES-KOH pH 7.4, 100 mM KOAc, 3 mM Mg(OAc)2, 2 mM DTT), 26 °C, 2 h; apparent KD, Hill equation; single experiments; apparent affinities ≤ 30 nM likely upper limits.

Regarding “eIF3 variant H725P (eIF3a/Tif32 CTD H725P) (from UniProt P38249 1-964; P06103 1-763; P32497 1-812; P40217 1-347; Q04067 1-274)”, the Kd turned out to be 0.063 µM in assay [1] and 0.079 µM in assay [2].

Regarding “40S•eIF1•eIF1A with eIF3 variant H725P (from UniProt P32911 1-108; P38912 1-153; P38249 1-964; P06103 1-763; P32497 1-812; P40217 1-347; Q04067 1-274) (complex)”, in assay [3], the Kd is 0.00842 µM and 0.0146 µM.

Consider “eIF3 variant Box37 (eIF3a/Tif32 NTD, alanine substitution of 361-370) (from UniProt P38249 1-964; P06103 1-763; P32497 1-812; P40217 1-347; Q04067 1-274)”, for which the Kd in assay [1] is 0.084 µM; in assay [2] it was 0.06 µM.

“eIF3 variant ∆8 (eIF3a/Tif32 NTD, N-terminal truncation of aa 1-200) (from UniProt P38249 201-964; P06103 1-763; P32497 1-812; P40217 1-347; Q04067 1-274) (complex)”: the fold decrease of apparent affinity against WT eIF3 in assay [4] was 2 fold; in assay [5], less than 2 fold.

On to “40S•eIF1•eIF1A with eIF3 variant Q258R (from UniProt P32911 1-108; P38912 1-153; P38249 1-964; P06103 1-763; P32497 1-812; P40217 1-347; Q04067 1-274) (complex)”, for which the Kd in assay [3] was 0.0122 µM and 0.0184 µM.

Consider “40S•eIF1•eIF1A with WT eIF3 (from UniProt P32911 1-108; P38912 1-153; P38249 1-964; P06103 1-763; P32497 1-812; P40217 1-347; Q04067 1-274) (complex)”, for which, in assay [3], the Kd is 0.0156 µM and 0.0138 µM.

“40S•eIF1•eIF1A with the eIF3a/b/c sub-complex (from UniProt P32911 1-108; P38912 1-153; P38249 1-964; P06103 1-763; P32497 1-812)”: the Kd in assay [3] is 0.0407 µM and 0.0438 µM.

Consider “eIF3 variant rnp1 (eIF3b/Prt1 RRM, alanine substitution of 124-130) (from UniProt P38249 1-964; P06103 1-763; P32497 1-812; P40217 1-347; Q04067 1-274)”, for which the Kd in assay [1] came to 0.158 µM; in assay [2] it was 0.11 µM.

As for “wild-type eIF3 (S. cerevisiae eukaryotic translation initiation factor 3, five essential subunits) (from UniProt P38249 1-964; P06103 1-763; P32497 1-812; P40217 1-347; Q04067 1-274) (complex)”, the Kd in assay [4] and in assay [5] was less than 0.038 µM each time.

Turning to “eIF3 variant Box6 (eIF3a/Tif32 CTD, alanine substitution of 692-701) (from UniProt P38249 1-964; P06103 1-763; P32497 1-812; P40217 1-347; Q04067 1-274)”, the Kd in assay [1] is less than 0.038 µM; in assay [2], less than 0.035 µM.

Regarding “40S•eIF1•eIF1A (no eIF3) (from UniProt P32911 1-108; P38912 1-153) (complex)”, the Kd in assay [3] is 0.0891 µM and 0.119 µM.

Take “eIF3 variant Q258R (eIF3i/Tif34) (from UniProt P38249 1-964; P06103 1-763; P32497 1-812; P40217 1-347; Q04067 1-274) (complex)”: the Kd in assay [6] was 0.033 µM and 0.064 µM; in assay [7], 0.033 µM and 0.027 µM.

Turning to “40S•eIF1•eIF1A with eIF3 variant R731I (from UniProt P32911 1-108; P38912 1-153; P38249 1-964; P06103 1-763; P32497 1-812; P40217 1-347; Q04067 1-274) (complex)”, the Kd in assay [3] was 0.00604 µM and 0.00788 µM.

Turning to “eIF3 (wild type) (from UniProt P38249 1-964; P06103 1-763; P32497 1-812; P40217 1-347; Q04067 1-274) (complex)”, the Kd in assay [6] is 0.037 µM and 0.038 µM.

Take “eIF3 variant GAP^85 (eIF3c/Nip1 NTD, deletion of aa 60-144) (from UniProt P38249 1-964; P06103 1-763; P32497 1-812; P40217 1-347; Q04067 1-274)”: the figures for the Kd in assay [1] and in assay [2] were less than 0.038 µM and less than 0.027 µM, respectively.

Turning to “eIF3 variant KLF (eIF3g/Tif35 K194A/L235A/F237A) (from UniProt P38249 1-964; P06103 1-763; P32497 1-812; P40217 1-347; Q04067 1-274)”, the values for the Kd in assay [1] and in assay [2] were 0.053 µM and less than 0.022 µM, respectively.

As to “eIF3 variant prt1-1 (eIF3b/Prt1 S555F) (from UniProt P38249 1-964; P06103 1-763; P32497 1-812; P40217 1-347; Q04067 1-274)”, the Kd in assay [1] is 0.104 µM; in assay [2] it was 0.083 µM.

Take “eIF3 variant H725P (eIF3a/Tif32 CTD) (from UniProt P38249 1-964; P06103 1-763; P32497 1-812; P40217 1-347; Q04067 1-274) (complex)”: the Kd in assay [6] is 0.063 µM and 0.062 µM; in assay [7], 0.086 µM and 0.072 µM.

With “eIF3 variant ∆8 (eIF3a/Tif32 NTD, N-terminal truncation of aa 1-200) (from UniProt P38249 201-964; P06103 1-763; P32497 1-812; P40217 1-347; Q04067 1-274)”, the Kd in assay [1] was determined as 0.089 µM; in assay [2], 0.085 µM.

For the substance “eIF3 variant ∆60 (eIF3c/Nip1 CTD, C-terminal truncation of aa 753-813) (from UniProt P38249 1-964; P06103 1-763; P32497 1-752; P40217 1-347; Q04067 1-274)”, the results for the Kd in assay [1] and in assay [2] were 0.047 µM and less than 0.024 µM, respectively.

Consider “eIF3 variant R731I (eIF3a/Tif32 CTD) (from UniProt P38249 1-964; P06103 1-763; P32497 1-812; P40217 1-347; Q04067 1-274) (complex)”, for which the Kd in assay [6] is 0.055 µM; in assay [7] it was 0.1 µM.

Take “eIF3 variant ∆8 (eIF3a/Tif32 NTD) (from UniProt P38249 201-964; P06103 1-763; P32497 1-812; P40217 1-347; Q04067 1-274) (complex)”: the Kd in assay [6] is 0.089 µM and 0.088 µM; in assay [7], 0.084 µM and 0.09 µM.

Take “40S•eIF1•eIF1A with eIF3 variant ∆8 (from UniProt P32911 1-108; P38912 1-153; P38249 201-964; P06103 1-763; P32497 1-812; P40217 1-347; Q04067 1-274) (complex)”: the Kd in assay [3] was 0.00886 µM and 0.0038 µM.

Turning to “eIF3 variant Box12-SPW (eIF3c/Nip1 NTD K111S/K114P/K116W) (from UniProt P38249 1-964; P06103 1-763; P32497 1-812; P40217 1-347; Q04067 1-274)”, the Kd stood at 0.069 µM in assay [1] and 0.067 µM in assay [2].

Turning to “eIF3 variant R731I (eIF3a/Tif32 CTD R731I) (from UniProt P38249 1-964; P06103 1-763; P32497 1-812; P40217 1-347; Q04067 1-274)”, the figures for the Kd in assay [1] and in assay [2] were 0.05 µM and 0.113 µM, respectively.

As to “eIF3 variant Q258R (eIF3i/Tif34 Q258R) (from UniProt P38249 1-964; P06103 1-763; P32497 1-812; P40217 1-347; Q04067 1-274)”, the results for the Kd in assay [1] and in assay [2] were 0.049 µM and less than 0.03 µM, respectively.
